Test: soluble on expression in E. coli; label from the status in PepcDB or PDB records

Sequence	soluble on expression in E. coli
MGHHHHHHHHHHSSGHIEGRHMVDMMDLPRSRINAGMLAQFIDKPVCFVGRLEKIHPTGKMFILSDGEGKNGTIELMEPLDEEISGIVEVVGRVTAKATILCTSYVQFKEDSHPFDLGLYNEAVKIIHDFPQFYPLGIVQHD	soluble
MSGGSSCSQTPSRAIPATRRVVLGDGVQLPPGDYSTTPGGTLFSTTPGGTRIIYDRKFLMECRNSPVTKTPPRDLPTIPGVTSPSSDEPPMEASQSHLRNSPEDKRAGGEESQFEMDI	soluble
MTLSPYLQEVAKRRTFAIISHPDAGKTTITEKVLLFGQAIQTAGTVKGRGSNQHAKSDWMEMEKQRGISITTSVMQFPYHDCLVNLLDTPGHEDFSEDTYRTLTAVDCCLMVIDAAKGVEDRTRKLMEVTRLRDTPILTFMNKLDRDIRDPMELLDEVENELKIGCAPITWPIGCGKLFKGVYHLYKDETYLYQSGKGHTIQEVRIVKGLNNPDLDAAVGEDLAQQLRDELELVKGASNEFDKELFLAGEITPVFFGTALGNFGVDHMLDGLVEWAPAPMPRQTDTRTVEASEDKFTGFVFKIQANMDPKHRDRVAFMRVVSGKYEKGMKLRQVRTAKDVVISDALTFMAGDRSHVEEAYPGDILGLHNHGTIQIGDTFTQGEMMKFTGIPNFAPELFRRIRLKDPLKQKQLLKGLVQLSEEGAVQVFRPISNNDLIVGAVGVLQFDVVVARLKSEYNVEAVYESVNVATARWVECADAKKFEEFKRKNESQLALDGGDNLAYIATSMVNLRLAQERYPDVQFHQTREH	soluble

Source: the DeepSol protein solubility set
